The text below walks through data of patent US9006194B2, “Compositions and methods for diminishing viral infection and inflammation associated with viral infection” (Drexel University, priority 2008, dated 2015).

The subject of the experiment is CD4+ and CD8+ T cells. Description: Apoptosis assay of primary human CD4+ and CD8+ T lymphocytes exposed to Type 1 interferon (CD95/Fas-induced, Annexin V). To be noted: 5 ng/mL for 72 hours, resting or anti-CD3 activated T cells, n=5 healthy donors.

B1: IFN-β: Type I interferon (protein, UniProt P01574 22-187, looked up)
Interferon beta: MSYNLLGFLQRSSNFQCQKLLWQLNGRLEYCLKDRMNFDIPEEIKQLQQFQKEDAALTIYEMLQNIFAIFRQDSSSTGWNETIVENLLANVYHQINHLKTVLEEKLEKEDFTRGKLMSSLHLKRYYGRILHYLKAKEYSHCAWTIVRVEILRNFYFINRLTGYLRN
As to B1, the “CD95/Fas-induced apoptosis of T cells (in words)” value is given as “increase”.
